Measured values taken from US8304443B2, “Indazole derivatives” (Asahi Kasei Pharma Corporation, priority 2008, dated 2012).

Sequences of proteins named here, by UniProt entry; tags and fusion partners are left off.
UniProt P25100, whole entry: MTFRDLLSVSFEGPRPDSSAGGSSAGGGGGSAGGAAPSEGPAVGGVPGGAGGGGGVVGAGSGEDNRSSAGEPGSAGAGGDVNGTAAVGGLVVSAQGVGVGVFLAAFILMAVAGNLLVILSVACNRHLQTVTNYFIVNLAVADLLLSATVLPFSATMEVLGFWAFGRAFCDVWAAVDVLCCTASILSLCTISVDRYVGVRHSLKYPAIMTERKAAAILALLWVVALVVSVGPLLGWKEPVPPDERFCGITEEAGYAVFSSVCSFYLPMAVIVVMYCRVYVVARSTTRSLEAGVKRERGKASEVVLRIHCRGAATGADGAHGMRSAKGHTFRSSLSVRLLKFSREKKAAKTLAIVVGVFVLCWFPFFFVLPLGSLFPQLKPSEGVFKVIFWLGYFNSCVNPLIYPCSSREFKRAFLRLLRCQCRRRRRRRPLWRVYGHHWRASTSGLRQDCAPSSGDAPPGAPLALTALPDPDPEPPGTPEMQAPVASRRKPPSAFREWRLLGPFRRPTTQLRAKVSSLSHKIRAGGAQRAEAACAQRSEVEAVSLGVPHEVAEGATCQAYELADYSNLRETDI
UniProt P35348, whole entry: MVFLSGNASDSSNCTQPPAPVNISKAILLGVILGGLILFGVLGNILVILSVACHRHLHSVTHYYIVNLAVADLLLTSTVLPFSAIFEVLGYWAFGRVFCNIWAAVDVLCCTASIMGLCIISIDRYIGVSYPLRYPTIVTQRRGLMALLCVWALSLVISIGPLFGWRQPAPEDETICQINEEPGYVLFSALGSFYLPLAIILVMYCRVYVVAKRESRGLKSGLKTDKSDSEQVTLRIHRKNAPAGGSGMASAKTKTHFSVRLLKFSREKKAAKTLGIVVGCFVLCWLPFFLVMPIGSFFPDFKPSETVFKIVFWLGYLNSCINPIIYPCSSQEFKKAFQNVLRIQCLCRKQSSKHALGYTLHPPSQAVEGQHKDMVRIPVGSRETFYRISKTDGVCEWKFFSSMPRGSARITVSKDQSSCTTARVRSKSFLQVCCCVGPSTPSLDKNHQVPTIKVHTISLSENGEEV
UniProt P13945, whole entry: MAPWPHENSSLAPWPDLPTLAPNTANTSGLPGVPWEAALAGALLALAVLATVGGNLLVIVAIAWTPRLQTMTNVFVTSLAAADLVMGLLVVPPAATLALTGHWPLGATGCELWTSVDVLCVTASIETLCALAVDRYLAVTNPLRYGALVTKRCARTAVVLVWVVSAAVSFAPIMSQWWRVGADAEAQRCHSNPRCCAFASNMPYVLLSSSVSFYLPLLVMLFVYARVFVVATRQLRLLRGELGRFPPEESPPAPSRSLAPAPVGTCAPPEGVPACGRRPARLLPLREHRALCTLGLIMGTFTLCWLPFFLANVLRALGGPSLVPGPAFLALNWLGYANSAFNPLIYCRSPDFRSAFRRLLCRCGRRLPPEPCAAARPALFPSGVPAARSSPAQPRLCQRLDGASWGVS
UniProt P35368, whole entry: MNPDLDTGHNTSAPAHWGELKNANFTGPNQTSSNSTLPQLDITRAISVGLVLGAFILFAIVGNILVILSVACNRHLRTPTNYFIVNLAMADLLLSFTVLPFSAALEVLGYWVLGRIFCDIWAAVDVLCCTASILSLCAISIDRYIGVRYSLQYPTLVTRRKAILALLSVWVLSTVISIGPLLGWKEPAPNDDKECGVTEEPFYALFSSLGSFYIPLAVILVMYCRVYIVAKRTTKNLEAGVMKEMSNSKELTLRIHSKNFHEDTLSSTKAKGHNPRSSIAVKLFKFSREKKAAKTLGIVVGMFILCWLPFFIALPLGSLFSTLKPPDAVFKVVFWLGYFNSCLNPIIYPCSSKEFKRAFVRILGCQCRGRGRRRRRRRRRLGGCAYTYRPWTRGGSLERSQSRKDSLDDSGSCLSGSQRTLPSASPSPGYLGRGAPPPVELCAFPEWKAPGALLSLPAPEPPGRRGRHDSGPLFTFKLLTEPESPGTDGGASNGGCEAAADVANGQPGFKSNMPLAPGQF

How the values were obtained:
[1] = molecular target: human α1D adrenergic receptor (Homo sapiens, UniProt P25100); experiment: Test example 6: human α1D adrenergic receptor agonist activity (SRE-luciferase); conditions: HEK293 cells, luciferase reporter
[2] = molecular target: human α1A adrenergic receptor (Homo sapiens, UniProt P35348); experiment: Test example 4: human α1A adrenergic receptor agonist activity (Ca flux, Fura-2); format: cell-based
[3] = molecular target: human β3 adrenergic receptor (Homo sapiens, UniProt P13945); experiment: Test example 1-B: human β3 adrenergic receptor agonist activity (cAMP-Screen, 96-well); format: cell-based; conditions: read-out: β3 receptor EC50, Table 4, CHO cells with human β3 gene
[4] = molecular target: human α1B adrenergic receptor (Homo sapiens, UniProt P35368); experiment: Test example 5: human α1B adrenergic receptor agonist activity (SRE-luciferase); conditions: HEK293 cells, luciferase reporter

In the case of COc1n[nH]c2cc(OCCNC[C@H](O)c3cccc(NS(C)(=O)=O)c3)ccc12, the α1D agonist activity [1] is reported as “no α1D agonist activity”, the “α1A receptor I.A.” value ([2]; Table 3, maximum response to norephinephrine taken as 100%) is reported as 60% and the “α1A receptor I.A.” value ([2]; Table 4, maximum response to norephinephrine taken as 100%) is reported as 60%. The EC50 [3] was 0.04 µM and the α1B agonist activity [4] was “no α1B agonist activity”.
